Test: Intrinsic dissolution rate, Rotation Disc Method (USP 1087)
Assay type: physicochemical
Conditions: 37° C., 100 rpm, average of two measurements
Procedure: The intrinsic dissolution rate of raloxifene succinate, raloxifene DL-lactate, raloxifene L-lactate, raloxifene L-lactate hemihydrate, raloxifene malonate, raloxifene sulphate (2-propanol solvate) and raloxifene hydrochloride were tested in dilute solutions of hydrochloric acid and in dilute solutions of phosphorous acid containing NaCl in amounts so the chloride ion concentration in each solution was 0.1 M. The tests were performed at 37° C. and at pH of 1, 2, 3, 4, and 5, respectively. The raloxifene hydrochloride salt used in these experiments was purchased from Otto Bradt GmbH (batch MA/RF/12003) while the rest of the raloxifene acid additions salts were prepared according to Example 1-6.
The experiments were carried out following the procedure of Rotation Disc Method (USP 1087) using Vankel VK 7000 Intrinsic dissolution apparatus (Vankel Technology group, W. Vankelion) equipped with Vankel 12-4120 intrinsic disc having a surface area of 0.5 cm^2, Vankel 12-4130 surface plate, Vankel 12-4140 punch, and Vankel shaft and holder (surface area: 0.5 cm^2) and operating at a rotation rate of 100 rpm.
The buffer solution is handled in a 750 ml measuring bottle, degassed and transferred into a dissolution vessel. Approximately 100 mg compound is weighed out and transferred into an intrinsic disc. Said disc is then assembled, and to said disc a disc is applied in the IR-press at a pressure of 5 kN for 1 minute. The disc is started and samples of 10 ml are collected by use of “pressure vials” after 1, 10, 20, 30, 45, and 60 minutes. The change of volume is corrected using the equation: Q=Vs×(sumCn−1)+Cn×Vt wherein Q designates the volume at the time t, C designates the concentration of the sample n, Vt designates the volume of the liquid collected at the time t, and Vs designates the volume of the sample collected. The sample is measured against a standard using HPLC. In these measurements a 5 microns 3.9×150 mm column filled with symmetrical material is employed and as eluant a 20 mM phosphate buffer KH2PO4, pH 6.8 mixed with acetonitrile and tetrahydrofuran in the ratio 55:35:10 is used.
The standard is prepared by use of following procedure: 20 mg of salt is dissolved initially in 100 ml of MeOH and then 1 ml of this solution is transferred to a 50 ml flask with water and then 2 ml to a 20 ml flask of buffer in question.
pH 1: a 0.1 M HCl is used.
0.025 M Phosphate buffer solution pH 2.0: 3.40 g of potassium dihydrogen phosphate is dissolved in 900 ml of water. Then pH is adjusted to 2.0 with phosphoric acid and diluted to 1000.0 ml with water. Exactly 5.85 g of NaCl is added to 1 L of buffer.
0.025 M Phosphate buffer solution pH 3.0: 3.40 g of potassium dihydrogen phosphate is dissolved in 900 ml of water. Then pH is adjusted to 3.0 with phosphoric acid and diluted to 1000.0 ml with water. Exactly 5.85 g of NaCl is added to 1 L of buffer.
0.022 M Phosphate buffer solution pH 4.0: 3.0 g of potassium dihydrogen phosphate is dissolved in 800 ml of water. Then pH is adjusted with 1 M potassium hydroxide and phosphoric acid and diluted to 1000.0 ml with water. Exactly 5.85 g of NaCl is added to 1 L of buffer. 0.02 M Phosphate buffer solution pH 5.0: 2.72 g of potassium dihydrogen phosphate is dissolved in 800 ml of water. Then pH is adjusted with 1 M potassium hydroxide and diluted to 1000.0 ml with water. Exactly 5.85 g of NaCl is added to 1 L of buffer.

intrinsic dissolution rate (IDR) (Hydrochloride, pH 1 (0.1 M HCl)): 0.0036 μmol/min * cm^2
intrinsic dissolution rate (IDR) (Phosphate, pH 2, chloride 0.1 M): 0.0137 μmol/min * cm^2
intrinsic dissolution rate (IDR) (Phosphate, pH 3, chloride 0.1 M): 0.0052 μmol/min * cm^2
intrinsic dissolution rate (IDR) (Phosphate, pH 4, chloride 0.1 M): 0.0109 μmol/min * cm^2
intrinsic dissolution rate (IDR) (Phosphate, pH 5, chloride 0.1 M): 0.0081 μmol/min * cm^2
Substance: [6-hydroxy-2-(4-hydroxyphenyl)benzo[b]thien-3-yl][4-[2-(1-piperidinyl)ethoxy]phenyl-, sulphate (2-propanol solvate)
